What was measured:
wtKIT [1] = target: T1, wtKIT (Homo sapiens, UniProt P10721); test: Caliper biochemical assay, wtKIT; conditions: read-out: KIT Biochemical IC50 avg, Table 6
Kinetic solubility assay = conditions: 50 mM PB (pH 7.4), shaken 24 hours at RT
wtKIT [2] = target: T1, wtKIT; test: HTRF biochemical assay, wtKIT (phosphorylation of a peptide substrate); conditions: read-out: KIT Biochemical IC50 avg, Table 4

By UniProt entry, the sequences of proteins in these tests, tags left out. Residues count along the entry.
UniProt P10721, 26-976 limits assumed: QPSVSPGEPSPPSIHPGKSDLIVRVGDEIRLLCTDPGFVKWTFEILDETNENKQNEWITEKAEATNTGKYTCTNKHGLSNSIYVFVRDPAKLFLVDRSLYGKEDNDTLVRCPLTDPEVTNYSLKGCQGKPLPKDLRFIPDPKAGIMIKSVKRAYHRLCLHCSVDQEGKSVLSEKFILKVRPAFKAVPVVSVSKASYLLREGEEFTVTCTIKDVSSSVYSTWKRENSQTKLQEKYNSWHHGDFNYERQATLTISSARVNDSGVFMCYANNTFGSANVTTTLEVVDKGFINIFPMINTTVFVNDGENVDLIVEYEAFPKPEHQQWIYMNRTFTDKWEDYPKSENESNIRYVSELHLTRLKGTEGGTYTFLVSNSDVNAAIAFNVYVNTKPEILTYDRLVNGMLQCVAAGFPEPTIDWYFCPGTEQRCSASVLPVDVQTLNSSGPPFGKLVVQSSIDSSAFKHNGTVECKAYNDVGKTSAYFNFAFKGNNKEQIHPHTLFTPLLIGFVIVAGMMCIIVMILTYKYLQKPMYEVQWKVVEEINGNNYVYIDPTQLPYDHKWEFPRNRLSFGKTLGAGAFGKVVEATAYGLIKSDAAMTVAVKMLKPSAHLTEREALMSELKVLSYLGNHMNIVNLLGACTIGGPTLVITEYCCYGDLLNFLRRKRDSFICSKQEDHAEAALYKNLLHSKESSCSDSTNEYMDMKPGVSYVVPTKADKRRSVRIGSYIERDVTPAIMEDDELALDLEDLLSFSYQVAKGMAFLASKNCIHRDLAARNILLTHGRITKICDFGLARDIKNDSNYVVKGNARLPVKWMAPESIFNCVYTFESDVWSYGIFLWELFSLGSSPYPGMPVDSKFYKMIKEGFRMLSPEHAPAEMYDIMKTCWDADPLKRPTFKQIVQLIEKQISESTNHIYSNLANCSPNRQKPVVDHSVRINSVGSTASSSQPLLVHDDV

Structure (SMILES)	IC50 (wtKIT [2])	further results
Cc1ccc(-c2noc(C34CCOC(C)(C3)C4)n2)cc1NC(=O)c1cnc2ccccn12		IC50 (wtKIT [1]): 0.05 to 0.5 µM; Solubility (μM) (Kinetic solubility assay): **** (a solubility less than or equal to 2 μM)
Cc1ccc(-c2noc([C@H]3C[C@@H]3F)n2)cc1NC(=O)c1cnc2cc(OC(C)C(F)(F)F)ccn12 (single isomer, unassigned)	0.05 to 0.5 µM	
Cc1ccn2c(C(=O)Nc3cc(-c4noc(C(O)C(F)(F)F)n4)ccc3C)cnc2c1 (stereo not drawn)	0.05 to 0.5 µM	
Cc1ccc(-c2noc(C[C@H]3CCCO3)n2)cc1NC(=O)c1cnc2cc(COCC(C)(C)O)ccn12	< 0.05 µM	
COCc1ccn2c(C(=O)Nc3cc(-c4noc(-c5ccccc5)n4)ccc3C)cnc2c1	< 0.05 µM	
Cc1ccc(-c2noc([C@H]3C[C@@H]3F)n2)cc1NC(=O)c1cnc2c(F)c(OC(C)C)ccn12	0.05 to 0.5 µM	
Cc1ccc(-c2noc([C@H]3C[C@@H]3F)n2)cc1NC(=O)c1cnc2cc(COCC(O)C(F)(F)F)ccn12 (single isomer, unassigned)	0.05 to 0.5 µM	
Cc1ccc(-c2noc(C[C@H]3CCCO3)n2)cc1NC(=O)c1cnc2cc(-c3cscn3)ccn12	< 0.05 µM	
Cc1ccc(-c2noc([C@@H](O)CO)n2)cc1NC(=O)c1cnc2cc(Cl)ccn12	0.5 to 5 µM	
Cc1ccn2c(C(=O)Nc3cc(-c4noc(C)n4)ccc3C)cnc2c1	0.05 to 0.5 µM	
Cc1ccc(-c2noc(CC(O)C(F)F)n2)cc1NC(=O)c1cnc2cc(COCCO)ccn12 (single isomer, unassigned) [Compound I-511]	0.05 to 0.5 µM	
Cc1ccn2c(C(=O)Nc3cc(-c4noc(C(O)(O)C(F)(F)F)n4)ccc3C)cnc2c1	0.05 to 0.5 µM	
Cc1ccc(-c2noc(C[C@H](O)C(F)F)n2)cc1NC(=O)c1cnc2cc(COC(C)(C)CO)ccn12	0.05 to 0.5 µM	
Cc1ccc(-c2noc(N3CC[C@@H](O)C3)n2)cc1NC(=O)c1cnc2cc(Cl)ccn12	0.05 to 0.5 µM	
Cc1ccc(-c2noc([C@@H]3CCCN3)n2)cc1NC(=O)c1cnn2cc(-c3ccn(C)n3)ccc12	< 0.05 µM	
Cc1ccc(-c2noc([C@H](C)O)n2)cc1NC(=O)c1cnn2cc(-c3cscn3)ccc12	< 0.05 µM	
Cc1ccc(-c2noc(CC3CCCO3)n2)cc1NC(=O)c1cnc2cc(-c3cn(C)cn3)ccn12 (stereo not drawn)	< 0.05 µM	
Cc1ccc(-c2noc(C[C@H](O)C(F)F)n2)cc1NC(=O)c1cnc2cc(COCCN)ccn12	< 0.05 µM	
Cc1ccc(-c2noc(N3CC[C@@H](O)C3)n2)cc1NC(=O)c1cnc2cc(-c3ccn(C)n3)ccn12	< 0.05 µM	
Cc1ccc(-c2noc(CC(O)C(F)F)n2)cc1NC(=O)c1cnc2cc(COCC(C)(C)O)ccn12 (single isomer, unassigned)	< 0.05 µM	
Cc1ccn2c(C(=O)Nc3cc(-c4noc(CC(O)C(F)F)n4)ccc3C)cnc2c1 (stereo not drawn)	0.05 to 0.5 µM	

Structure (SMILES)	IC50 (wtKIT [2])	further results
Cc1ccc(-c2noc([C@H]3C[C@@H]3F)n2)cc1NC(=O)c1cnc2cc(CCO)ccn12	0.05 to 0.5 µM	
Cc1ccc(-c2noc(C[C@@H]3CCCO3)n2)cc1NC(=O)c1cnc2cc(-c3cscn3)ccn12	< 0.05 µM	
Cc1ccc(-c2noc(C3CCCC3O)n2)cc1NC(=O)c1cnc2ccccn12 (stereo not drawn)	0.05 to 0.5 µM	
CC(=O)NCC(O)Cc1nc(-c2ccc(C)c(NC(=O)c3cnc4ccccn34)c2)no1 (stereo not drawn)	0.5 to 5 µM	
Cc1ccc(-c2noc(C[C@H]3CCCO3)n2)cc1NC(=O)c1cnc2cc(COCC3(O)CC3)ccn12	< 0.05 µM	
Cc1ccc(-c2noc(C[C@@H](C)O)n2)cc1NC(=O)c1cnc2cc(C(C)(F)F)ccn12	0.05 to 0.5 µM	
Cc1ccc(-c2noc([C@@H]3CC4(CC4)CN3)n2)cc1NC(=O)c1cnc2cc(C(C)(F)F)ccn12	< 0.05 µM	
Cc1ccc(-c2noc([C@H]3C[C@@H]3F)n2)cc1NC(=O)c1cnn2cc(CCOCC(C)(C)O)ccc12	0.5 to 5 µM	
Cc1ccc(-c2noc(CC3(O)CC3)n2)cc1NC(=O)c1cnc2cc(Cl)ccn12	< 0.05 µM	
Cc1ccc(-c2noc(N3CCC(O)C3)n2)cc1NC(=O)c1cnc2cc(-c3ccn(C)n3)ccn12 (stereo not drawn)	< 0.05 µM	
Cc1ccc(-c2noc(C3CCN3)n2)cc1NC(=O)c1cnn2cc(-c3ccn(C)n3)ccc12 (stereo not drawn)	< 0.05 µM	
Cc1ccc(-c2noc(N3CC[C@H](O)C3)n2)cc1NC(=O)c1cnc2cc(Cl)ccn12	0.05 to 0.5 µM	
Cc1ccc(-c2noc([C@H]3C[C@@H]3F)n2)cc1NC(=O)c1cnc2ccc(C(=O)N(C)C)cn12	0.05 to 0.5 µM	
CC[C@@H](O)Cc1nc(-c2ccc(C)c(NC(=O)c3cnc4cc(-c5ccn(C)n5)ccn34)c2)no1	< 0.05 µM	
Cc1ccc(-c2noc(N3CC[C@H](O)C3)n2)cc1NC(=O)c1cnc2cc(-c3ccn(C)n3)ccn12	< 0.05 µM	
Cc1ccc(-c2noc(CC[C@@](C)(O)C(F)F)n2)cc1NC(=O)c1cnc2ccccn12	< 0.05 µM	
Cc1ccc(-c2noc(C3CC(C)N3)n2)cc1NC(=O)c1cnc2cc(F)ccn12 (single isomer, unassigned)	0.05 to 0.5 µM	
CC[C@H](O)Cc1nc(-c2ccc(C)c(NC(=O)c3cnc4cc(-c5ccn(C)n5)ccn34)c2)no1	< 0.05 µM	
Cc1ccc(-c2noc([C@H]3C[C@@H]3F)n2)cc1NC(=O)c1cnc2cc3c(cn12)OC(C)(C)C3	< 0.05 µM	
Cc1ccc(-c2noc(C3CC(O)C3)n2)cc1NC(=O)c1cnc2cc(-c3ccn(C)n3)ccn12 (single isomer, unassigned)	< 0.05 µM	
Cc1ccc(-c2noc([C@H]3C[C@@H]3F)n2)cc1NC(=O)c1cnc2cc3c(cn12)CC(C)(C)O3	0.05 to 0.5 µM	

Structure (SMILES)	IC50 (wtKIT [2])	further results
Cc1ccc(-c2noc(-c3ccccn3)n2)cc1NC(=O)c1cnc2cc(COCCO)ccn12	< 0.05 µM	
COCc1ccn2c(C(=O)Nc3cc(-c4noc(C[C@H](C)O)n4)ccc3C)cnc2c1	< 0.05 µM	
Cc1nc(-c2ccc(C)c(NC(=O)c3cnc4cc(COCC(C)(C)O)ccn34)c2)no1	0.05 to 0.5 µM	
Cc1ccc(-c2noc([C@@H]3CC(F)(F)CN3)n2)cc1NC(=O)c1cnn2cc(Cl)ccc12	0.05 to 0.5 µM	
Cc1nc(-c2ccc(C)c(NC(=O)c3cnc4cc(C(C)(F)F)ccn34)c2)no1	0.05 to 0.5 µM	
Cc1ccc(-c2noc([C@H]3C[C@@H](O)C3)n2)cc1NC(=O)c1cnc2cc(Cl)ccn12 (relative stereo)	0.05 to 0.5 µM	
Cc1ccc(-c2noc([C@@H]3CC(F)(F)CN3)n2)cc1NC(=O)c1cnn2cc(F)ccc12	0.05 to 0.5 µM	
Cc1ccc(-c2noc([C@H]3C[C@@H]3F)n2)cc1NC(=O)c1cnc2n1CC(C)(C)CC2	0.05 to 0.5 µM	
CC[C@@H](O)Cc1nc(-c2ccc(C)c(NC(=O)c3cnc4cc(-c5cn(C)cn5)ccn34)c2)no1	< 0.05 µM	
Cc1ccc(-c2noc(C[C@H](O)C(F)F)n2)cc1NC(=O)c1cnc2cc(COCCN(C)C)ccn12	0.05 to 0.5 µM	
COCCOCC1CCn2c(C(=O)Nc3cc(-c4noc(C5CC5F)n4)ccc3C)cnc2C1 (stereo not drawn)	0.05 to 0.5 µM	
CC[C@H](O)Cc1nc(-c2ccc(C)c(NC(=O)c3cnc4cc(-c5cscn5)ccn34)c2)no1	< 0.05 µM	
Cc1ccc(-c2noc([C@H]3C[C@@H]3F)n2)cc1NC(=O)c1cnn2cc(COCCO)ccc12	< 0.05 µM	
Cc1ccn2c(C(=O)Nc3cc(-c4noc(CC(O)(O)C(F)(F)F)n4)ccc3C)cnc2c1	0.05 to 0.5 µM	
Cc1ccc(-c2noc(C[C@@H](C)O)n2)cc1NC(=O)c1cnc2cc(OCCCN3CCCC3)ccn12	< 0.05 µM	
Cc1ccc(-c2noc(CC(C)(O)C(F)(F)F)n2)cc1NC(=O)c1cnc2ccccn12 (stereo not drawn)	0.05 to 0.5 µM	
Cc1ccc(-c2noc(C3CC3F)n2)cc1NC(=O)c1cnc2n1CCC(COCCO)C2 (stereo not drawn)	0.05 to 0.5 µM	
Cc1ccn2c(C(=O)Nc3cc(-c4noc(CC(O)(O)C(F)F)n4)ccc3C)cnc2c1	0.5 to 5 µM	
Cc1ccc(-c2noc(CCC(C)(O)C(F)(F)F)n2)cc1NC(=O)c1cnc2ccccn12 (stereo not drawn)	0.05 to 0.5 µM	
CC[C@@H](O)Cc1nc(-c2ccc(C)c(NC(=O)c3cnc4cc(-c5cscn5)ccn34)c2)no1	< 0.05 µM	
Cc1nc(-c2ccc(C)c(NC(=O)c3cnn4cc(COCC5(O)CC5)ccc34)c2)no1	0.05 to 0.5 µM	

Structure (SMILES)	IC50 (wtKIT [2])	further results
CC[C@@H](O)Cc1nc(-c2ccc(C)c(NC(=O)c3cnc4cc(COC)ccn34)c2)no1	< 0.05 µM	
Cc1ccc(-c2noc(N3CCC(O)C3)n2)cc1NC(=O)c1cnc2cc(Cl)ccn12 (stereo not drawn)	0.05 to 0.5 µM	
CNC(C)(C)COCc1ccn2c(C(=O)Nc3cc(-c4noc(C[C@H](O)C(F)F)n4)ccc3C)cnc2c1	0.5 to 5 µM	
Cc1ccc(-c2noc(CC3(O)CC3)n2)cc1NC(=O)c1cnc2cc(F)ccn12	0.05 to 0.5 µM	
Cc1ccc(-c2noc(C[C@H](C)O)n2)cc1NC(=O)c1cnc2cc(C(C)(F)F)ccn12	0.05 to 0.5 µM	
Cc1ccc(-c2noc(C3CCN3)n2)cc1NC(=O)c1cnc2cc(-c3cscn3)ccn12 (stereo not drawn)	< 0.05 µM	
CCc1cn2c(C(=O)Nc3cc(-c4noc(N5CC(F)(F)C5)n4)ccc3C)cnc2cc1Cl	0.05 to 0.5 µM	
Cc1ccc(-c2noc([C@H]3C[C@@H]3F)n2)cc1NC(=O)c1cnc2cc(C(C)(F)F)c(F)cn12	0.05 to 0.5 µM	
Cc1ccc(-c2noc(C3CCN3)n2)cc1NC(=O)c1cnc2cc(C(C)(F)F)ccn12 (stereo not drawn)	< 0.05 µM	
[2H]C([2H])c1nc(-c2ccc(C)c(NC(=O)c3cnc4ccccn34)c2)no1	0.05 to 0.5 µM	
Cc1ccc(-c2noc(C[C@@H]3CCCO3)n2)cc1NC(=O)c1cnc2cc(-c3cn(C)cn3)ccn12	< 0.05 µM	
Cc1ccc(-c2noc([C@H]3C[C@@H]3F)n2)cc1NC(=O)c1cnc2cc(COCCO)c(F)cn12	< 0.05 µM	
Cc1ccc(-c2noc([C@H]3C[C@@H]3F)n2)cc1NC(=O)c1cnc2ccc(C(=O)N3CCCC3)cn12	0.05 to 0.5 µM	
Cc1ccc(-c2noc(C3CC3F)n2)cc1NC(=O)c1cnc2n1CCC(C)C2 (stereo not drawn)	0.05 to 0.5 µM	
Cc1ccc(-c2noc(C[C@H]3CCCO3)n2)cc1NC(=O)c1cnc2cc(-c3cn(C)cn3)ccn12	< 0.05 µM	
Cc1ccc(-c2noc([C@H]3C[C@@H]3F)n2)cc1NC(=O)c1cnn2c(F)cccc12	0.05 to 0.5 µM	
CCC(O)Cc1nc(-c2ccc(C)c(NC(=O)c3cnc4cc(OCCCN5CCCC5)ccn34)c2)no1 (single isomer, unassigned)	< 0.05 µM	
Cc1ccc(-c2noc(CC3CCCO3)n2)cc1NC(=O)c1cnc2cc(Cl)ccn12 (single isomer, unassigned)	< 0.05 µM	
Cc1ccc(-c2noc(N3CC(F)(F)C3)n2)cc1NC(=O)c1cnc2cc(Cl)c(F)cn12	0.05 to 0.5 µM	
Cc1ccc(-c2noc([C@H]3C[C@H](O)C3)n2)cc1NC(=O)c1cnc2cc(Cl)ccn12 (relative stereo)	0.05 to 0.5 µM	

Reference: US20240254119A1 (THIRD HARMONIC BIO, INC., priority 2022, published 2024)
